scFv variants of Ab-14 (light chain) against a SARS-CoV-2 spike peptide

Values reported by Engelhart et al. 2022, doi:10.1038/s41597-022-01779-4 (FLAb copy).

All variants were tested on one target, the spike HR2 peptide PDVDLGDISGINAS (SARS-CoV-2).

Ab-14 is the parent antibody, in scFv form: VH, then a 15-residue (Gly4Ser)3 linker, then VL. The heavy chain is unchanged in all variants.
VH: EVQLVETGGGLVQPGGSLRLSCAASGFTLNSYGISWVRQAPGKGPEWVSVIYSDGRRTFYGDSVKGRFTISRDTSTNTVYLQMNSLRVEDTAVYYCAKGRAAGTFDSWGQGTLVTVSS
VL: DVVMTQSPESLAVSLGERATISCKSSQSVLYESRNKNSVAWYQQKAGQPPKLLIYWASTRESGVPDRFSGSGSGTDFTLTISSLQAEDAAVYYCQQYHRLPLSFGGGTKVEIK

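The starting antibody came from a phage panning campaign against this peptide. The library (AAYL50) carries one to three amino acid substitutions per variant, with no insertions or deletions. The assay is AlphaSeq: two haploid yeast populations carry antibody and antigen on their surface. After mating in shaken culture at 30 °C for 16 h, diploids were selected and their barcode pairs sequenced. A regression on co-assayed BCL2-family reference pairs converts the normalised counts of each replicate to an apparent Kd. There are three technical replicates.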

Variants are written as CDR1, CDR2 and CDR3 of the light chain (limits as in the source). Parent: KSSQSVLYESRNKNSVA, WASTRES, QQYHRLPLS.
Scale: log10 of Kd in nM, estimated from mating counts; low values are strong binders.
"n.d." means that the variant was in the library but no mating with the target was seen in that replicate; the authors take this as a sign of poor binding, and no number exists.
As a blank, each scFv also met three strains without target: over library AAYL50, 18% of these pairings were detected, typically at 4.19 and seldom below 2.99. For each scFv, signals with the empty controls are counted beside the result, with their mean in brackets.

| # | CDR-L1 | CDR-L2 | CDR-L3 | log10 Kd, replicates | empty controls |
|---|---|---|---|---|---|
| 1 | KSSQSVKEESRNKNLVA | WASTRES | QQYHRLPLS | n.d. / n.d. / n.d. | 0/9 |
| 2 | KSSQSVLYLSRNKNSVA | RASTRES | QQYHRLPLS | 2.74 / n.d. / n.d. | 0/9 |
| 3 | KSSQSVLYESRRKNSVA | WASTRES | GQYHRQPLS | n.d. / 4.48 / n.d. | 2/9 (3.30) |
| 4 | KSSQSVLYESRKKNSVA | WASTRES | QQYDRLPLS | 0.12 / 0.36 / 1.56 | 0/9 |
| 5 | KSSQSVLYESRNKFSVA | WASTRNS | WQYHRLPLS | 4.95 / 4.30 / 5.87 | 5/9 (4.63) |
| 6 | KSSQSVLYESRNKNSVA | WASTFES | QQYHRLFLS | n.d. / n.d. / 5.20 | 1/9 (2.95) |
| 7 | KSSQSVLYESRNKNLVA | WASTRES | QQCHRLPLS | n.d. / n.d. / n.d. | 1/9 (3.98) |
| 8 | KSSQSVLYESMNKNSVA | WASKRES | QQYHRLPHS | n.d. / n.d. / 3.61 | 3/9 (3.51) |
| 9 | KSSQSVLYESMNKNSVA | PASTRES | QQYHRLPPS | n.d. / n.d. / n.d. | 2/9 (3.55) |
| 10 | KWSQSVLYESRNENSVA | WAKTRES | QQYHRLPLS | 1.17 / 1.41 / 1.29 | 1/9 (4.66) |
| 11 | KSCQSVLYESRNKNSVA | WASQRES | QQYHRLPLG | 2.14 / 2.36 / n.d. | 0/9 |
| 12 | SSSQSVLYESRNKNSVA | HCSTRES | QQYHRLPLS | 1.07 / 1.26 / 1.22 | 2/9 (4.77) |
| 13 | KSMQSVLYESRNKNSVA | WASTRES | CNYHRLPLS | n.d. / 3.28 / n.d. | 1/9 (3.33) |
| 14 | KSIQSVLYETRNKNSVA | WQSTRES | QQYHRLPLS | n.d. / 3.82 / n.d. | 1/9 (3.96) |
| 15 | KSSWSVLYESRNKNSVA | WASTRES | QQYHRFPLS | n.d. / n.d. / n.d. | 0/9 |
| 16 | KSSQSELYESRNKNSAA | WADTRES | QQYHRLPLS | n.d. / 3.82 / 3.92 | 4/9 (4.43) |
| 17 | KSKQSVLYESRNKNSVA | WASIRES | QQYHRLFLS | n.d. / n.d. / n.d. | 1/9 (4.52) |
| 18 | KSSGSVCYESRNMNSVA | WASTRES | QQYHRLPLS | 2.04 / 1.94 / 2.42 | 1/9 (3.16) |
| 19 | MSSQSVLYESRNMNSVA | WASTRES | QQYHRDPLS | 0.74 / 1.01 / 1.06 | 1/9 (3.60) |
| 20 | KSSQSVLYESRYKNSVM | WASTSES | QQYHRLPLS | n.d. / n.d. / n.d. | 3/9 (3.88) |
| 21 | KSSQSMLYESRNKNSVA | WASLRES | QQYHNLPLS | 1.82 / 1.34 / 1.66 | 0/9 |
| 22 | KSSASVLYESRNKNSVA | WASTVLS | QQYHRLPLS | 5.06 / 3.17 / 3.07 | 1/9 (4.06) |
| 23 | SSSQSVAYESRNKNSVA | WASTRES | EQYHRLPLS | 1.87 / 2.02 / 2.18 | 0/9 |
| 24 | KSSQSVLYESRYKNSVY | WASTRES | QQSHRLPLS | n.d. / n.d. / n.d. | 2/9 (4.71) |
| 25 | KSSASVLYMSRNKNSVA | WASTRES | QQYTRLPLS | 1.93 / n.d. / 1.79 | 0/9 |
| 26 | KSSQSVLYESRNKNLVA | WASSRES | QQYHRLPQS | n.d. / n.d. / n.d. | 2/9 (3.78) |
| 27 | KSSQSVLYESRNKNSVH | WASTRES | QQYHMLPLH | 4.98 / 4.56 / n.d. | 9/9 (4.85) |
| 28 | KSSESVLYESRNKNSVL | WASTRES | QQYRRLPLS | n.d. / n.d. / n.d. | 0/9 |
| 29 | KGSQSVLYESRNKNSVA | WASTRES | QMYHRLPLW | 2.47 / 3.04 / 2.70 | 0/9 |
| 30 | KSSQSVLYESRNKNSCA | WARTRES | QQYHRLPLS | n.d. / n.d. / n.d. | 0/9 |
| 31 | KKSQSVLYHSGNKNSVA | WASTRES | QQYHRLPLS | 2.12 / 2.45 / 2.45 | 0/9 |
| 32 | KSSQSVLYESRNKNSVA | WASTRAW | QPYHRLPLS | 3.41 / n.d. / n.d. | 1/9 (2.52) |
| 33 | KSSQSVLYESRNKNTVA | WASTRFS | QQYHTLPLS | 3.29 / 3.29 / 2.89 | 2/9 (3.77) |
| 34 | KSSQSVRYEHRNKNSVA | WASTRES | QQYHRTPLS | 2.30 / 2.28 / 2.33 | 1/9 (3.25) |
| 35 | KSSQSVLYESRNKNSVA | WALTRES | QQYDRLPLS | 2.49 / 2.23 / 3.78 | 0/9 |
| 36 | KMSQSVLYESRNKNSVA | WASTRES | QQYHRLMLP | 1.51 / 1.42 / 1.61 | 1/9 (3.75) |
| 37 | CSSSSVLYASRNKNSVA | WASTRES | QQYHRLPLS | 1.78 / 1.88 / 1.81 | 0/9 |
| 38 | KSSQSHLYERRNKRSVA | WASTRES | QQYHRLPLS | n.d. / n.d. / n.d. | 2/9 (4.21) |
| 39 | KSSQCVLYESRNKNSVA | QASTDES | QQYHRLPLS | 4.06 / n.d. / n.d. | 1/9 (4.01) |
| 40 | KSFQSVLYESRNKNSVA | CASTDES | QQYHRLPLS | 5.51 / 3.29 / n.d. | 1/9 (3.25) |
| 41 | KDSQSVLYESRNENSVA | WYSTRES | QQYHRLPLS | n.d. / n.d. / n.d. | 1/9 (3.32) |
| 42 | KSSQSVLYESRNKPSVA | WASTRES | QQYHRLRLE | 4.08 / n.d. / n.d. | 2/9 (3.94) |
| 43 | KSSQSVLYESRNKNSVA | TASLREG | QQYHRLPLS | 1.48 / 1.44 / 1.98 | 4/9 (4.96) |
| 44 | KSSQSVLYESRNTCSVP | WASTRES | QQYHRLPLS | n.d. / n.d. / n.d. | 1/9 (3.69) |
| 45 | KSSQSVLYEPRNKNSVA | AASTREA | QQYHRLPLS | 4.75 / 4.21 / 4.51 | 5/9 (4.40) |

The last 6 entries again:

| CDR-L1 | CDR-L2 | CDR-L3 | log10 Kd, replicates | empty controls |
|---|---|---|---|---|
| KSFQSVLYESRNKNSVA | CASTDES | QQYHRLPLS | 5.51 / 3.29 / n.d. | 1/9 (3.25) |
| KDSQSVLYESRNENSVA | WYSTRES | QQYHRLPLS | n.d. / n.d. / n.d. | 1/9 (3.32) |
| KSSQSVLYESRNKPSVA | WASTRES | QQYHRLRLE | 4.08 / n.d. / n.d. | 2/9 (3.94) |
| KSSQSVLYESRNKNSVA | TASLREG | QQYHRLPLS | 1.48 / 1.44 / 1.98 | 4/9 (4.96) |
| KSSQSVLYESRNTCSVP | WASTRES | QQYHRLPLS | n.d. / n.d. / n.d. | 1/9 (3.69) |
| KSSQSVLYEPRNKNSVA | AASTREA | QQYHRLPLS | 4.75 / 4.21 / 4.51 | 5/9 (4.40) |